Assay results: patent US10040791B2, “Isoxazole derivative as mutant isocitrate dehydrogenase 1 inhibitor” (Daiichi Sankyo Company, Limited, priority 2014, dated 2018)

Chains of the proteins cited; added tags and fusions are not shown.
UniProt O75874, whole entry R132H: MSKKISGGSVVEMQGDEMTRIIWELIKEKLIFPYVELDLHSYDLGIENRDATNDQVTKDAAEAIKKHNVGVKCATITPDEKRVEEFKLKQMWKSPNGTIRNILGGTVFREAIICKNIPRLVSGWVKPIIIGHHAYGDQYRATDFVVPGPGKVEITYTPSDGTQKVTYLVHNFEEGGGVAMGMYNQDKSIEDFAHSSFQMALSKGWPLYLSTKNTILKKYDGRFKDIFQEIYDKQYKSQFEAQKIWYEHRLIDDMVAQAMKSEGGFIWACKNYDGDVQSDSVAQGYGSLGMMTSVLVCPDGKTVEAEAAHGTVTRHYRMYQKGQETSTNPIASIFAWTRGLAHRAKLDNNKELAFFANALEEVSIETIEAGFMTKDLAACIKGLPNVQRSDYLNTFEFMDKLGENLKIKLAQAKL

Target: IDH1R132H (Homo sapiens (Human), UniProt O75874, R132H)
Experiment: Inhibitory activity against IDH1R132H enzyme (NADPH detection, WST-8)
Format: biochemical
Conditions: 12 nM, residual NADPH detected with WST-8, read-out: Test Example 1 IDH1 R132H IC50

| IC50 | Structure (SMILES) |
| --- | --- |
| 34 nM | Cc1cc(Cl)c(-c2noc(C(C)(C)C)c2C(=O)n2ccc3c(/C=C/C(=O)O)cccc32)c(Cl)c1 [Example 38, (2E)-3-(1-{[5-(tert-Butyl)-3-(2,6-dichloro-4-methylphenyl)-1,2-oxazol-4-yl]carbonyl}-1H-indol-4-yl)prop-2-enoic acid] |
| 144 nM | C=CC(=O)N1C[C@@H](C)N(c2onc(-c3c(Cl)cc(Cl)cc3Cl)c2C(=O)n2ccc3c(/C=C/C(=O)O)cccc32)C[C@H]1C [Example 152, (2E)-3-[1-({5-[(2R,5R)-4-Acryloyl-2,5-dimethylpiperazin-1-yl]-3-(2,4,6-trichlorophenyl)-1,2-oxazol-4-yl}carbonyl)-1H-indol-4-yl]prop-2-enoic acid] |
| 16 nM | C#CC(=O)N1CC(c2onc(-c3c(Cl)cc(Cl)cc3Cl)c2C(=O)n2ccc3c(/C=C/C(=O)O)cccc32)C1 [Example 101] |
| 43 nM | CC(C)(C)c1onc(-c2c(Cl)cc(Cl)cc2Cl)c1C(=O)N1CCc2c(/C=C/C(=O)O)cccc21 [Example 32, (2E)-3-(1-{[5-(tert-Butyl)-3-(2,4,6-trichlorophenyl)-1,2-oxazol-4-yl]carbonyl}-2,3-dihydro-1H-indol-4-yl)prop-2-enoic acid] |
| 299 nM | C=CC(=O)N1CCN(c2onc(-c3c(Cl)cccc3Cl)c2C(=O)n2ccc3c(/C=C/C(=O)O)cccc32)[C@H](C2CC2)C1 [Example 154, (2E)-3-[1-({5-[(2R)-4-Acryloyl-2-cyclopropylpiperazin-1-yl]-3-(2,6-dichlorophenyl)-1,2-oxazol-4-yl}carbonyl)-1H-indol-4-yl]prop-2-enoic acid] |
| 12 nM | COC1(c2onc(-c3c(F)cc(Cl)cc3Cl)c2C(=O)n2cc3c4c(cccc42)/C(=C/C(=O)O)CC3)CCC1 [Example 15, (2E)-[1-{[3-(2,4-Dichloro-6-fluorophenyl)-5-(1-methoxycyclobutyl)-1,2-oxazol-4-yl]carbonyl}-3,4-dihydrobenzo[cd]indol-5(1H)-ylidene]ethanoic acid] |
| 12 nM | CC(C)(C)c1onc(-c2c(Cl)cccc2Br)c1C(=O)n1ccc2c(/C=C/C(=O)O)cccc21 [Example 39, (2E)-3-(1-{[3-(2-Bromo-6-chlorophenyl)-5-(tert-butyl)-1,2-oxazol-4-yl]carbonyl}-1H-indol-4-yl)prop-2-enoic acid] |
| 17 nM | Cc1cn(C(=O)c2c(-c3c(Cl)cccc3Cl)noc2C(C)(C)F)c2cccc(/C=C/C(=O)O)c12 [Example 53, (2E)-3-(1-{[3-(2,6-Dichlorophenyl)-5-(2-fluoropropan-2-yl)-1,2-oxazol-4-yl]carbonyl}-3-methyl-1H-indol-4-yl)prop-2-enoic acid] |
| 71 nM | C=CC(=O)N1C[C@@H](C)N(c2onc(-c3c(Cl)cccc3Cl)c2C(=O)n2ccc3c(/C=C/C(=O)O)cccc32)[C@@H](C)C1 [Example 144, (2E)-3-(1-{[5-(4-Acryloyl-cis-2,6-dimethylpiperazin-1-yl)-3-(2,6-dichlorophenyl)-1,2-oxazol-4-yl]carbonyl}-1H-indol-4-yl)prop-2-enoic acid] |
| 8 nM | CNC1(c2onc(-c3c(Cl)cc(Cl)cc3Cl)c2C(=O)n2cc3c4c(cccc42)/C(=C/C(=O)O)CC3)CC1 [Example 86, (2E)-[1-({5-[1-(Methylamino)cyclopropyl]-3-(2,4,6-trichlorophenyl)-1,2-oxazol-4-yl}carbonyl)-3,4-dihydrobenzo[cd]indol-5(1H)-ylidene]ethanoic acid] |
| 252 nM | CC(=O)c1cn(C(=O)c2c(-c3c(Cl)cc(Cl)cc3Cl)noc2C(C)(C)F)c2cccc(/C=C/C(=O)O)c12 [Example 64, (2E)-3-(3-Acetyl-1-{[5-(2-fluoropropan-2-yl)-3-(2,4,6-trichlorophenyl)-1,2-oxazol-4-yl]carbonyl}-1H-indol-4-yl)prop-2-enoic acid] |
| 11 nM | CC1(c2onc(-c3c(Cl)cccc3Cl)c2C(=O)n2ccc3c(/C=C/C(=O)O)cccc32)COC1 [Example 75, (2E)-3-(1-{[3-(2,6-Dichlorophenyl)-5-(3-methyloxetan-3-yl)-1,2-oxazol-4-yl]carbonyl}-1H-indol-4-yl)prop-2-enoic acid] |
| 519 nM | C=CC(=O)N1CCC(c2onc(-c3c(Cl)cc(Cl)cc3Cl)c2C(=O)n2ccc3c(C4CC4C(=O)O)cccc32)CC1 (stereo not drawn) [Example 105] |
| 256 nM | NC[C@@H]1CCN(c2onc(-c3c(Cl)cccc3Cl)c2C(=O)n2ccc3c(/C=C/C(=O)O)cccc32)C1 [Example 140] |
| 314 nM | C=CC(=O)N1CCN(c2onc(-c3c(F)cccc3Cl)c2C(=O)n2ccc3c(/C=C/C(=O)O)cccc32)C(C)(C)C1 [Example 157, (2E)-3-(1-{[5-(4-Acryloyl-2,2-dimethylpiperazin-1-yl)-3-(2-chloro-6-fluorophenyl)-1,2-oxazol-4-yl]carbonyl}-1H-indol-4-yl)prop-2-enoic acid] |
| 30 nM | CC(C)(C)c1onc(-c2c(Cl)cccc2Cl)c1C(=O)n1ccc2c(/C=C/C(=O)O)cccc21 [Example 24, (2E)-3-(1-{[5-(tert-Butyl)-3-(2,6-dichlorophenyl)-1,2-oxazol-4-yl]carbonyl}-1H-indol-4-yl)prop-2-enoic acid] |
| 14 nM | CC(C)(F)c1onc(-c2c(Cl)cc(Cl)cc2Cl)c1C(=O)n1cc(Cl)c2c(/C=C/C(=O)O)cccc21 [Example 66, (2E)-3-(3-Chloro-1-{[5-(2-fluoropropan-2-yl)-3-(2,4,6-trichlorophenyl)-1,2-oxazol-4-yl]carbonyl}-1H-indol-4-yl)prop-2-enoic acid] |
| 37 nM | C=CC(=O)N1CCC(c2onc(-c3c(Cl)cc(Cl)cc3Cl)c2C(=O)n2cc(C)c3c(/C=C/C(=O)O)cccc32)(N(C)C)CC1 [Example 126] |
| 10 nM | CN(C)C1(c2onc(-c3c(Cl)cc(Cl)cc3Cl)c2C(=O)n2cc3c4c(cccc42)/C(=C/C(=O)O)CC3)CC1 [Example 92] |
| 12 nM | Cc1cn(C(=O)c2c(-c3c(Cl)ccc(F)c3Cl)noc2C(C)C)c2cccc(/C=C/C(=O)O)c12 [Example 30, (2E)-3-(1-{[3-(2,6-Dichloro-3-fluorophenyl)-5-(propan-2-yl)-1,2-oxazol-4-yl]carbonyl}-3-methyl-1H-indol-4-yl)prop-2-enoic acid] |
| 19 nM | C=CC(=O)N1CC(OC)(c2onc(-c3c(Cl)cc(Cl)cc3Cl)c2C(=O)n2ccc3c(/C=C/C(=O)O)cccc32)C1 [Example 97] |
| 98 nM | C=CC(=O)N1C[C@@H](C)N(c2onc(-c3c(Cl)cc(Cl)cc3Cl)c2C(=O)n2ccc3c(/C=C/C(=O)O)cccc32)[C@@H](C)C1 [Example 151, (2E)-3-(1-{[5-(4-Acryloyl-cis-2,6-dimethylpiperazin-1-yl)-3-(2,4,6-trichlorophenyl)-1,2-oxazol-4-yl]carbonyl}-1H-indol-4-yl)prop-2-enoic acid] |
| 176 nM | C=CC(=O)N1CCN(c2onc(-c3c(Cl)cc(Cl)cc3Cl)c2C(=O)n2ccc3c(/C=C/C(=O)O)cccc32)C(C)C1 (stereo in doubt) [Example 146, (2E)-3-[1-({5-[(2R)-4-Acryloyl-2-methylpiperazin-1-yl]-3-(2,4,6-trichlorophenyl)-1,2-oxazol-4-yl}carbonyl)-1H-indol-4-yl]prop-2-enoic acid] |
| 73 nM | C/C=C/C(=O)N1CCC(c2onc(-c3c(Cl)cc(Cl)cc3Cl)c2C(=O)n2cc(C)c3c(/C=C/C(=O)O)cccc32)CC1 [Example 119] |
| 13 nM | CC1(c2onc(-c3c(Cl)cc(Cl)cc3Cl)c2C(=O)n2ccc3c(/C=C/C(=O)O)cccc32)CC1 [Example 37, (2E)-3-(1-{[5-(1-Methylcyclopropyl)-3-(2,4,6-trichlorophenyl)-1,2-oxazol-4-yl]carbonyl}-1H-indol-4-yl)prop-2-enoic acid] |
| 116 nM | C=CC(=O)N1CCN(c2onc(-c3c(Cl)cc(Cl)cc3Cl)c2C(=O)n2ccc3c(/C=C/C(=O)O)cccc32)CC1 [Example 143, (2E)-3-(1-{[5-(4-Acryloylpiperazin-1-yl)-3-(2,4,6-trichlorophenyl)-1,2-oxazol-4-yl]carbonyl}-1H-indol-4-yl)prop-2-enoic acid] |
| 17 nM | Cc1cn(C(=O)c2c(-c3c(F)cccc3Cl)noc2C(C)(C)F)c2cccc(/C=C/C(=O)O)c12 [Example 52, (2E)-3-(1-{[3-(2-Chloro-6-fluorophenyl)-5-(2-fluoropropan-2-yl)-1,2-oxazol-4-yl]carbonyl}-3-methyl-1H-indol-4-yl)prop-2-enoic acid] |

| Structure (SMILES) | IC50 |
| --- | --- |
| C=CC(=O)N1CCC(c2onc(-c3c(Cl)cc(Cl)cc3Cl)c2C(=O)n2cc3c4c(cccc42)/C(=C/C(=O)O)CC3)CC1 [Example 94, (2E)-[1-{[5-(1-Acryloylpiperidin-4-yl)-3-(2,4,6-trichlorophenyl)-1,2-oxazol-4-yl]carbonyl}-3,4-dihydrobenzo[cd]indol-5(1H)-ylidene]ethanoic acid] | 24 nM |
| CC(C)(F)c1onc(-c2c(Cl)cc(Cl)cc2Cl)c1C(=O)n1cc(F)c2c(/C=C/C(=O)O)cccc21 [Example 45, (2E)-3-(3-Fluoro-1-{[5-(2-fluoropropan-2-yl)-3-(2,4,6-trichlorophenyl)-1,2-oxazol-4-yl]carbonyl}-1H-indol-4-yl)prop-2-enoic acid] | 13 nM |
| C=CC(=O)N1CCC(c2onc(-c3c(Cl)cc(Cl)cc3Cl)c2C(=O)c2cn(C)c3c(/C=C/C(=O)O)cccc23)CC1 [Example 166, (2E)-3-(3-{[5-(1-Acryloylpiperidin-4-yl)-3-(2,4,6-trichlorophenyl)-1,2-oxazol-4-yl]carbonyl}-1-methyl-1H-indol-7-yl)prop-2-enoic acid] | 54 nM |
| CC1(c2onc(-c3c(Cl)cc(Cl)cc3Cl)c2C(=O)n2cc3c4c(cccc42)/C(=C/C(=O)O)CC3)CC(F)(F)C1 [Example 19] | 16 nM |
| Cc1cc(Cl)cc(Cl)c1-c1noc(C(C)(C)C)c1C(=O)n1ccc2c(/C=C/C(=O)O)cccc21 [Example 41, (2E)-3-(1-{[5-(tert-Butyl)-3-(2,4-dichloro-6-methylphenyl)-1,2-oxazol-4-yl]carbonyl}-1H-indol-4-yl)prop-2-enoic acid] | 52 nM |
| COC1(c2onc(-c3c(Cl)cc(Cl)cc3Cl)c2C(=O)n2cc(C)c3c(/C=C/C(=O)O)cccc32)CC1 [Example 57, (2E)-3-(1-{[5-(1-Methoxycyclopropyl)-3-(2,4,6-trichlorophenyl)-1,2-oxazol-4-yl]carbonyl}-3-methyl-1H-indol-4-yl)prop-2-enoic acid] | 10 nM |
